Shown are actives, neighbours in structure and some others; about 13% of the full set was active somewhere.
Lamin A splicing – changes lamin A minigene splicing in HeLa cells; HeLa LMNA splicing GFP/RFP minigene ratio, 48 h; Potency, µM (titrated, usually from 46.1 µM), inactives show at the highest dose ratio change, negative = inhibition, usual class: inhibitors; 0.01% of 200,000 active; AID 1487; active = well fitted inhibition curve with a large enough effect in the signal ratio, with a control signal flat, not every such curve was filed as active; inconclusive = small, poorly fitted or top-dose-only effect, or effect the other way, or a change in a side signal; the % refers to the signal ratio; note: potency is the fitted concentration of half-maximal effect; % is set by controls: 0 for no effect and ±100 for the full control effect
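S3 HeLa stable clones carrying a lamin A-EGFP splicing minigene plus DsRed2 were seeded at 600 cells/well in Opti-MEM with 2% FBS, pin-dosed and incubated 48 h at 37°C. Acumen cytometry (488 nm) gave the GFP/RFP total-intensity ratio.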
ALDH1A1 inh – ALDH1A1 (human) enzyme inhibition; AID 1030; Purified ALDH1A1, NADH fluorescence, propionaldehyde substrate; 7.3% of 220,000 active; Potency, µM (titrated, usually from 75.3 µM), inactives show at the highest dose activity, negative = inhibition, usual class: inhibitors; active = well fitted inhibition curve with a large enough effect, not every such curve was filed as active; inconclusive = small, poorly fitted or top-dose-only effect, or another doubt; inactive = no such curve, though single readings can be large or run the other way;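 note: potency is the fitted concentration of half-maximal effect; plate controls were no enzyme wells and a reference inhibitor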
Sfp inh – blocks B. subtilis Sfp PPTase activity; 310,000 tested, 3.5% active; AID 1490; Biochemical Sfp PPTase activity, qHTS; Potency, µM, for the others: max response, negative = inhibition, usual class: inhibitors; active = well fitted inhibition curve with a large enough effect; inconclusive = small, poorly fitted or top-dose-only effect, or another doubt; inactive = no such curve, though single readings can be large or run the other way;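 also: the enzyme is Sfp with the accession as filed and its product quenches rhodamine fluorescence; potency is read from the fitted curve at half-maximal effect; 0% = enzyme reaction without inhibitor and -100% = no enzyme wells; top concentration of the series not given in the record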
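Compounds were incubated with enzyme (final 15 nM) for 15 min at room temperature before substrate addition started the reaction. Fluorescence at 525 nm excitation, 598 nm emission was recorded immediately and after 30 minutes.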
G9a block – inhibitors of human histone lysine methyltransferase G9a | Q96KQ7 | G9a H3K9 monomethylation, AlphaScreen, 2 h | Potency, µM (titrated, usually from 102 µM), for the others: top-dose activity, negative = inhibition, actives largely listed as inhibitors | 8.8% of 350,000 active | AID 504332; note: potency is the fitted concentration of half-maximal effect; % is set by controls: 0 for no effect and ±100 for the full control effect; nearly all actives have a fitted effect of over 75% in size
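AlphaScreen detection with an anti-monomethyl H3K9 antibody quantified product after a 2 h room-temperature reaction containing 500 nM biotinylated H3K9 peptide, 20 µM SAM and 20 nM enzyme, which had been preincubated 15 min with compound.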
JMJD2E inh – inhibitors of human JMJD2E histone demethylase; JMJD2E catalytic domain, FDH-coupled NADH fluorescence (FDH is formaldehyde dehydrogenase); Potency, µM (series often up to 57.1 µM), without a hit: at the highest dose activity change, negative = inhibition, most hits filed as inhibitors; 1.6% of 230,000 active; active = well fitted inhibition curve with a large enough effect, not every such curve was filed as active; inconclusive = small, poorly fitted or top-dose-only effect, or another doubt; inactive = no such curve, though single readings can be large or run the other way;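 note: potency is the fitted concentration of half-maximal effect; 0% = wells with enzyme and -100% = buffer wells without enzyme; nearly all actives have a fitted effect of over 50% in size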
miR-21 reporter – miR-21 reporter, rising signal. 340,000 tested, under 10 active. Potency, µM (highest dose often 38.3 µM), for the others: at the highest dose reporter change, positive = more light. HeLa miR-21 FLuc reporter, luciferase, 48 h. AID 2288; active = well fitted rising curve with a large enough effect; inconclusive = small, poorly fitted or top-dose-only effect; inactive = no such curve, though single readings can be large or run the other way;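 further: % of control where 0% means no effect; miR-21 action dims this reporter so a rising signal means less miR-21 action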
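Using DMEM plus 10% FBS, HeLa miR-21-FLuc cells are incubated with test compounds (final up to about 40uM) for 48 hours; firefly luciferase signal is then imaged following reagent-mediated lysis.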
The depositor's hits bear a star; ? = inconclusive; nt = no result; ! = repeats disagree; [ ] = remark or other dose. Unless noted, calls come from the whole dose curve; as a rule, active = well fitted curve in the direction sought with a large enough effect; inconclusive = small, poorly fitted or top-dose-only effect, or another doubt; inactive = no such curve, though single readings can be large; an effect the other way counts as inactive or inconclusive.

SMILES	Lamin A splicing	ALDH1A1 inh	Sfp inh	G9a block	JMJD2E inh	miR-21 reporter
CN(C)c1ccc(C(CNS(=O)(=O)c2ccc(F)cc2)c2c[nH]c3ccccc23)cc1 (stereo unspecified)	?	?	12%	10µM*	-6%	-3%
CCOC(=O)c1ccc(S(=O)(=O)NCC(c2ccc(N(C)C)cc2)c2c[nH]c3ccccc23)cc1 (stereo unspecified)	-11%	13%	-10%	?	-3%	-6%
CN(C)c1ccc(C(CNC(=O)c2ccccc2Br)c2c[nH]c3ccccc23)cc1 (stereo unspecified)	-18%	7.9µM*	-4%	10µM*	-9%	-11%
Cc1ccccc1C(=O)NCC(c1ccc(N(C)C)cc1)N1CCCC1 (stereo unspecified)	-12%[46 µM]	nt	nt	-35%[59 µM]	nt	-21%
Cc1ccc(S(=O)(=O)NCCC(=O)NCC(c2ccco2)N2CCCCC2)cc1C (stereo unspecified)	nt	nt	nt	14%[0.501 µM]	nt	nt
COc1ccccc1OCC(=O)N1CCN(C(=O)COc2ccccc2OC)CC1	nt	nt	-15%	40µM*	nt	2%
COc1ccccc1OCC(=O)N1CCN(S(=O)(=O)c2ccc(Cl)cc2)CC1	nt	nt	nt	45µM*	nt	nt
COc1ccccc1OCC(=O)N1CCCCCCC1	nt	nt	-10%	nt	nt	-1%
Cc1ccc(S(=O)(=O)N2CCN(C(=O)COc3ccc(C)nc3[N+](=O)[O-])CC2)c(C)c1	1%[46 µM]	-13%	14%	-5%	-3%	-12%
O=C(Cn1ncc(Cl)c(Cl)c1=O)N1CCN(S(=O)(=O)c2ccc3ccccc3c2)CC1	?	20µM*	13%	45µM*	6%	?
Cc1ccc(OCC(=O)N2CCN(S(=O)(=O)c3ccc(Cl)cc3)CC2)c([N+](=O)[O-])n1	-2%	?	-2%	40µM*	-3%	-3%
O=C(C1CCCCC1)N(Cc1cccnc1)c1nc2ccc(Cl)cc2s1	-21%[46 µM]	nt	nt	8%[59 µM]	nt	2%
O=C(c1ccncc1)N1CCC2(CCCN(c3ccc(-c4ccccc4)cc3)C2)CC1	nt	-8%	-21%	-6%[12.7 µM]	nt	nt
CSc1ccccc1NC(=O)CN(C)C(=O)C1CCN(C(=O)Nc2ccccc2)CC1	nt	nt	nt	4%	nt	nt
O=C(COc1cccnc1[N+](=O)[O-])N1CCN(S(=O)(=O)c2ccc3ccccc3c2)CC1	?	16µM*	9%	?	?	-1%
O=C(COc1ccccc1O)N1CCN(C(=O)c2ccco2)CC1	-6%	2%	13%	-19%[12.7 µM]	-4%	-12%
O=C(COc1ccccc1F)N1CCN(S(=O)(=O)/C=C/c2ccccc2)CC1	?	?	?	45µM*	-4%	0%
O=C(Cc1c[nH]c2ccccc12)N1CCN(S(=O)(=O)c2ccc(Cl)cc2)CC1	nt	nt	nt	14µM*	nt	nt
O=C(COc1cccnc1[N+](=O)[O-])Nc1ccc(S(=O)(=O)N2CCOCC2)cc1	14%[9.22 µM]	-2%	16%	-6%	5%	1%
O=C(COc1cccnc1[N+](=O)[O-])N1CCN(C(=O)c2ccco2)CC1	nt	-8%	?	8.9µM*	-29%	5%

Printed as active in ALDH1A1 inh (from the list above):
| molecule | ALDH1A1 inh | Sfp inh | G9a block | JMJD2E inh | miR-21 reporter |
| --- | --- | --- | --- | --- | --- |
| CN(C)c1ccc(C(CNC(=O)c2ccccc2Br)c2c[nH]c3ccccc23)cc1 (stereo unspecified) | 7.9µM* | -4% | 10µM* | -9% | -11% |
| O=C(Cn1ncc(Cl)c(Cl)c1=O)N1CCN(S(=O)(=O)c2ccc3ccccc3c2)CC1 | 20µM* | 13% | 45µM* | 6% | ? |
| O=C(COc1cccnc1[N+](=O)[O-])N1CCN(S(=O)(=O)c2ccc3ccccc3c2)CC1 | 16µM* | 9% | ? | ? | -1% |

More results:
SMILES	Lamin A splicing	ALDH1A1 inh	Sfp inh	G9a block	JMJD2E inh	miR-21 reporter
CC(C)OCCCn1c(SCc2ccccc2C#N)nc2c(sc3ccccc32)c1=O	1%[46 µM]	nt	nt	-1%[59 µM]	nt	0%
O=C(Nc1ccccc1C(=O)OCc1cc(=O)n2c3c(sc2n1)CCCC3)c1cccc(Cl)c1	-8%[46 µM]	nt	nt	10%[59 µM]	nt	-8%
COc1cccc(/C=N/NC(=O)NC2CCCCC2)c1O	nt	nt	-11%	6%	22µM*	-63%
COc1cccc(/C=N/NC(=O)CC2C(=O)NN=C2C)c1O (stereo unspecified)	2%	2%	8%	-9%	8.9µM*	0%
COc1cccc(/C=N/NC(=O)c2ccoc2C)c1O	nt	nt	10%	1%	14µM*	4%
COc1cccc(/C=N/NC(=O)CC2C(=O)NN=C2C)c1OC (stereo unspecified)	4%	?	23%	16%[59 µM]	?	-6%
COc1cc(/C=N/NC(=S)NCCN2CCOCC2)ccc1O	-5%	3%	50µM*	36%[59 µM]	?	-8%
COc1cccc(/C=N/NC(=O)C(=O)NCc2ccco2)c1O	?	12%	17%	2%	13µM*	9%
COc1cc(/C=N/NC(=O)c2ccoc2C)ccc1O	?	3%	0%	50µM*	-17%	-55%
COc1cccc(/C=N/NC(=O)c2cnccn2)c1O	nt	nt	26%	6%	11µM*	-1%
COc1cccc(/C=N/NC(=O)c2c(-c3ccccc3)noc2C)c1O	?	0%	3%	107%[59 µM]	32µM*	16%
COc1cccc(/C=N/NC(=O)C(=O)NCc2ccco2)c1OC	-3%	-5%	-2%	15%[59 µM]	-2%	-4%
COc1cc(Cl)c(C)cc1NC(=O)CSc1cc(-c2ccccc2)nc(C)n1	?	nt	nt	18%[59 µM]	nt	-5%
COc1cccc(/C=N/NC(=O)c2cc3c(OC)cccc3[nH]2)c1O	?	-6%	-2%	42%[59 µM]	25µM*	22%
COc1cccc(/C=N/NC(=O)c2cc3c(OC)cccc3[nH]2)c1OC	-23%	-2%	2%	20%	?	-3%
CCOc1ccc(CNS(=O)(=O)c2ccc(-c3cc(C(F)(F)F)on3)s2)cc1	nt	nt	nt	-18%[59 µM]	nt	-3%
CC12CCC(=O)N1C(C(=O)NCCN1C(=O)S/C(=C\c3ccc(F)cc3)C1=O)CS2 (stereo unspecified)	nt	nt	nt	-43%	nt	nt
COc1ccc(CCN(C)C(=O)c2cc(S(=O)(=O)N3CCCCC3)ccc2Cl)cc1OC	nt	nt	nt	4%	nt	nt
Cc1cccc(C)c1OCC(=O)Nc1ncn[nH]1	8%	-6%	3%	14µM*!	-7%	0%
Cc1cc(OCC(=O)Nc2ncn[nH]2)ccc1Cl	nt	nt	nt	-37%[2.33 µM]	nt	-5%

Ordered by value in G9a block (descending): 3 of the compounds above
SMILES | G9a block
COc1cccc(/C=N/NC(=O)c2cc3c(OC)cccc3[nH]2)c1OC | 20%
COc1cccc(/C=N/NC(=O)NC2CCCCC2)c1O | 6%
COc1cccc(/C=N/NC(=O)c2ccoc2C)c1O | 1%

More results.
SMILES	Lamin A splicing	ALDH1A1 inh	Sfp inh	G9a block	JMJD2E inh	miR-21 reporter
COc1ccc(N(C)S(=O)(=O)c2cccc(C(=O)N(C)Cc3ccc(C)o3)c2)cc1	?	10µM*	-10%	-37%	-2%	2%
COc1ccc(N(C)S(=O)(=O)c2cccc(C(=O)NCc3ccc4c(c3)OCO4)c2)cc1	?	-8%	4%	7%	-5%	2%
NC12CC3CC(CC(C3)C1)C2	?	9%	31%	1.8µM*!	2%	-1%
CC(N)C12CC3CC(C1)CC(C(C)N)(C3)C2 (stereo unspecified)	-8%	2%	5%	1%[12.7 µM]	-6%	-4%
CC(=O)Nc1ccc(NC(=O)c2ccccc2CCc2ccccc2)cc1	?	1%	15%	9%	154%	2%
NC(Cc1cccc(-c2ccccc2CP(=O)(O)O)c1)C(=O)O (stereo unspecified)	?	6%	nt	9.5µM*!	-2%	nt
N[C@@H](Cc1cccc([N+](=O)[O-])c1)C(=O)O	nt	-9%[13.5 µM]	nt	nt	nt	nt
N[C@H](Cc1ccc(Cl)cc1)C(=O)O	nt	?	-28%	nt	?	nt
